In this data set the test system is Transferrin. The following applies: human, serum. Here is the method:
Bei diesen Vergleichsversuchen wurde ¹¹¹In sowohl mit den bekannten 12- und 14-Ring-Cyclamen als auch mit dem erfindungsgemäßen Cyclam aus Beispiel 1 komplexiert und anschließend jeweils der ¹¹¹In-Austausch gegen Transferrin - ein bekanntermaßen gutes Komplexierungsmittel - in humanem Serum bei 37°C untersucht.

Like-named read-outs stand apart in the source and are kept apart here.

Turning to Tetradecantetraacetat [TETA], the “¹¹¹In-Austausch gegen Transferrin” value reads like this: (12 h) “ca. 10%”; (120 h) greater than 30%.

The values are drawn from patent publication EP0392423A2, “Substituted 1,4-7-10-tetraazacyclotridecanes, method for their preparation and use of the same for labelling substances with radionuclides” (priority 1989, dated 1990).
